This is an account of results in article PMC7694328, “Synthesis and Glycosidase Inhibition Properties of Calix[8]arene-Based Iminosugar Click Clusters” (Pharmaceuticals, 2020).

Sequences of proteins named here, by UniProt entry; tags and fusion partners are left off. Residues count along the entry.
UniProt C0HJB3, 1-562 limits assumed: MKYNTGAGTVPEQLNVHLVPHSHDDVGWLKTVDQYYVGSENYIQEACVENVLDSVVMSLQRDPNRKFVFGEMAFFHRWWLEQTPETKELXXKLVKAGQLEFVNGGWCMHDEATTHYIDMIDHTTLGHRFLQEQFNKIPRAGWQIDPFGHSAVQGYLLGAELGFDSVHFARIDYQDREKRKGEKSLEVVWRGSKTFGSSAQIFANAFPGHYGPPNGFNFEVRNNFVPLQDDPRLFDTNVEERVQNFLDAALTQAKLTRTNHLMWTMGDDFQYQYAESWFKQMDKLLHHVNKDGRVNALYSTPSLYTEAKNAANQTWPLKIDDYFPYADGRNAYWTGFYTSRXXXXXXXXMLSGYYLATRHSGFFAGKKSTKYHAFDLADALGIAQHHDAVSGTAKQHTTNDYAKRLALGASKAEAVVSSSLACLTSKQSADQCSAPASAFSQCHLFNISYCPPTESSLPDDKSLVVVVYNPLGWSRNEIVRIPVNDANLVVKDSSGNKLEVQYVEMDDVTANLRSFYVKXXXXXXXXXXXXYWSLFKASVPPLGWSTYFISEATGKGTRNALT
UniProt C0HJB3, 563-981 limits assumed: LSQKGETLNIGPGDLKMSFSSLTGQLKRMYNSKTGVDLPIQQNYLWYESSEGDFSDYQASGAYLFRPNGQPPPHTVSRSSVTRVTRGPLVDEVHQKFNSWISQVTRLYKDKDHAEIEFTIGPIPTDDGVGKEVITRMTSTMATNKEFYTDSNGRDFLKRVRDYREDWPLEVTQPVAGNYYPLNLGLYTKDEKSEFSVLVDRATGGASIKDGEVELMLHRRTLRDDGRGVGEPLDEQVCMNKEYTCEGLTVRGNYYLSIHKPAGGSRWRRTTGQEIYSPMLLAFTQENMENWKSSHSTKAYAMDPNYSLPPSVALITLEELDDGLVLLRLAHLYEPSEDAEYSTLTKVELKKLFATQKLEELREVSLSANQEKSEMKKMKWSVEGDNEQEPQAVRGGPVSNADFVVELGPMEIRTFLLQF

The assay concerns the target Jack Bean α-mannosidase (JBα-man) (Canavalia ensiformis, UniProt C0HJB3). The experiment in a line: Inhibition assay against Jack Bean α-mannosidase (hydrolysis of p-nitrophenyl-α-D-mannopyranoside). The following applies: for Ki: means ± SD, triplicate; for rp/n (relative inhibition potency per DNJ unit): rp/number of DNJ units. The method, then:
p-nitrophenyl-α-D-mannopyranoside and α-mannosidase (EC 3.2.1.24, from Jack Bean, Km = 2.0 mM pH 5.5) were purchased from Sigma Aldrich(St. Louis, MO, USA).
General procedure for Inhibition assay with basic quench: Inhibitory potencies were determined spectrophotometrically (Versamax 96-well plate spectrophotometer, Molecular Devices Corporation, Sunnyvale, CA, USA) measuring the residual hydrolytic activities of the mannosidase against p-nitrophenyl-α-D-mannopyranoside in the presence and absence of the inhibitor. All kinetics were performed at 25 °C and started by enzyme addition (0.015 U/mL) in a 100 µL assay medium (acetate buffer, 0.2 M, pH = 5) containing substrate (varying concentration from Km/8 to 2Km value) in presence or absence of various concentrations of inhibitor. After 40–50 min incubation, the reaction was quenched by addition of 1M Na2CO3 (100 µL). The absorbance of the resulting solution was determined at 405 nm. Ki values were determined in duplicate or triplicate, using the Dixon and Lineweaver–Burk graphical methods with Microsoft Excel 97-03, or using non-linear regression with GraphPad Prism 7 Software. As the inhibitors are only partially soluble in water, they were dissolved in DMSO for concentrated mother solutions and DMSO/buffer for diluted solutions with a final DMSO concentration under 4% in all wells. Previously, the stability of the enzymes in presence of various concentrations of DMSO was controlled and the enzyme activity was unaffected.
General procedure for inhibition assay measured continuously: The release of p-nitrophenol was measured continuously at 385 nm to determine initial velocities. All kinetics were performed at 35 °C and started by substrate addition in a 1 mL assay medium (acetate buffer, 0.2 M, pH = 5) containing α-mannosidase (0.025 U/mL), substrate (varying concentration from Km/4 to Km value) in presence or absence of various concentrations of inhibitor. Under these conditions, the p-nitrophenolate released led to optical densities linear with both reaction time and concentration of the enzyme. Ki values were determined in duplicate or quadruplate, using the Dixon graphical method. As the inhibitors are only partially soluble in water, they were dissolved in DMSO for concentrated mother solutions and DMSO/buffer for diluted solutions with a final DMSO concentration under 5% in all vials. Previously, the stability of the enzymes in presence of various concentrations of DMSO was controlled and the enzyme activity was unaffected.

Take `CC(C)(C)c1cc2c3c(c1)Cc1cc(C(C)(C)C)cc(c1OCc1cn(CCCCCCCCCN4C[C@H](O)[C@@H](O)[C@H](O)[C@H]4CO)nn1)Cc1cc(C(C)(C)C)cc(c1OCc1cn(CCCCCCCCCN4C[C@H](O)[C@@H](O)[C@H](O)[C@H]4CO)nn1)Cc1cc(C(C)(C)C)cc(c1OCc1cn(CCCCCCCCCN4C[C@H](O)[C@@H](O)[C@H](O)[C@H]4CO)nn1)Cc1cc(C(C)(C)C)cc(c1OCc1ccc(cc1)CO3)Cc1cc(C(C)(C)C)cc(c1OCc1cn(CCCCCCCCCN3C[C@H](O)[C@@H](O)[C@H](O)[C@H]3CO)nn1)Cc1cc(C(C)(C)C)cc(c1OCc1cn(CCCCCCCCCN3C[C@H](O)[C@@H](O)[C@H](O)[C@H]3CO)nn1)Cc1cc(C(C)(C)C)cc(c1OCc1cn(CCCCCCCCCN3C[C@H](O)[C@@H](O)[C@H](O)[C@H]3CO)nn1)C2`: the inhibition mode result was “competitive inhibitors”, the Ki was 380 nM and the “rp/n (relative inhibition potency per DNJ unit)” value is 82.

On to `CC(C)(C)c1cc2c(OCc3cn(CCCCCCCCCN4C[C@H](O)[C@@H](O)[C@H](O)[C@H]4CO)nn3)c(c1)Cc1cc(C(C)(C)C)cc(c1OCc1cn(CCCCCCCCCN3C[C@H](O)[C@@H](O)[C@H](O)[C@H]3CO)nn1)Cc1cc(C(C)(C)C)cc(c1OCc1cn(CCCCCCCCCN3C[C@H](O)[C@@H](O)[C@H](O)[C@H]3CO)nn1)Cc1cc(C(C)(C)C)cc(c1OCc1cn(CCCCCCCCCN3C[C@H](O)[C@@H](O)[C@H](O)[C@H]3CO)nn1)Cc1cc(C(C)(C)C)cc(c1OCc1cn(CCCCCCCCCN3C[C@H](O)[C@@H](O)[C@H](O)[C@H]3CO)nn1)Cc1cc(C(C)(C)C)cc(c1OCc1cn(CCCCCCCCCN3C[C@H](O)[C@@H](O)[C@H](O)[C@H]3CO)nn1)Cc1cc(C(C)(C)C)cc(c1OCc1cn(CCCCCCCCCN3C[C@H](O)[C@@H](O)[C@H](O)[C@H]3CO)nn1)Cc1cc(C(C)(C)C)cc(c1OCc1cn(CCCCCCCCCN3C[C@H](O)[C@@H](O)[C@H](O)[C@H]3CO)nn1)C2`, for which the inhibition mode result is recorded as “competitive inhibitors”, the inhibition constant Ki is 320 nM and the “rp/n (relative inhibition potency per DNJ unit)” value is 73.

On to `CC(C)(C)c1cc2c(OCc3cn(CCCCCCN4C[C@H](O)[C@@H](O)[C@H](O)[C@H]4CO)nn3)c(c1)Cc1cc(C(C)(C)C)cc(c1OCc1cn(CCCCCCN3C[C@H](O)[C@@H](O)[C@H](O)[C@H]3CO)nn1)Cc1cc(C(C)(C)C)cc(c1OCc1cn(CCCCCCN3C[C@H](O)[C@@H](O)[C@H](O)[C@H]3CO)nn1)Cc1cc(C(C)(C)C)cc(c1OCc1cn(CCCCCCN3C[C@H](O)[C@@H](O)[C@H](O)[C@H]3CO)nn1)Cc1cc(C(C)(C)C)cc(c1OCc1cn(CCCCCCN3C[C@H](O)[C@@H](O)[C@H](O)[C@H]3CO)nn1)Cc1cc(C(C)(C)C)cc(c1OCc1cn(CCCCCCN3C[C@H](O)[C@@H](O)[C@H](O)[C@H]3CO)nn1)Cc1cc(C(C)(C)C)cc(c1OCc1cn(CCCCCCN3C[C@H](O)[C@@H](O)[C@H](O)[C@H]3CO)nn1)Cc1cc(C(C)(C)C)cc(c1OCc1cn(CCCCCCN3C[C@H](O)[C@@H](O)[C@H](O)[C@H]3CO)nn1)C2`, for which the inhibition mode entry is “competitive inhibitors” and the inhibitory constant (Ki) is 80000 nM.
